Values of other authors as cited in PMC3197697 (Bioorganic & medicinal chemistry, 2011).

Chains of the proteins cited; added tags and fusions are not shown.
UniProt P32245, whole entry: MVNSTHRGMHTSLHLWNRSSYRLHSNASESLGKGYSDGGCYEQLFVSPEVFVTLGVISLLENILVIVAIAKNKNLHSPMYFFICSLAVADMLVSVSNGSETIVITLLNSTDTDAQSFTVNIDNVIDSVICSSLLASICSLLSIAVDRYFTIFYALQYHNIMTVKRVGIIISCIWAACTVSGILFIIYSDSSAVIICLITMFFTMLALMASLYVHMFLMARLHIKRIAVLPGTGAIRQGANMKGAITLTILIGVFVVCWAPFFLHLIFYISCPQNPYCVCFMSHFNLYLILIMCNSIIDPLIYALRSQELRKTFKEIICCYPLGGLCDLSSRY

Key:
[1] = molecular target: MC4R (Homo sapiens, UniProt P32245); details: introduction statement
[2] = molecular target: T1, CCK2R (Homo sapiens, UniProt P32239); details: introduction statement
T1 sequence (P32239 1-447): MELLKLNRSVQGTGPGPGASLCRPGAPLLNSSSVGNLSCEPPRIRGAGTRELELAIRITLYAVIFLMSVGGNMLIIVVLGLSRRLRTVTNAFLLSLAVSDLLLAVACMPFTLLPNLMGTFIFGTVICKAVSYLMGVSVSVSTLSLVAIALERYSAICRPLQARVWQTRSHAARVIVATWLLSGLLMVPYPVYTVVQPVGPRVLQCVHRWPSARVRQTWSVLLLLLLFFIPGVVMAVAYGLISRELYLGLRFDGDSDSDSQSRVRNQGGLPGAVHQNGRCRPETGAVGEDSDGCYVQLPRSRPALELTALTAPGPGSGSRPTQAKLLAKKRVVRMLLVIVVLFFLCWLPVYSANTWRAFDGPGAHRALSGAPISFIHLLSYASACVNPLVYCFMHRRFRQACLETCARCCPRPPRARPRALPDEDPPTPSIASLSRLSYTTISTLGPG

Molecule	affinity for binding to MC4R (in words) [1]	affinity for binding to CCK2R (in words) [2]
CC(=O)N[C@@H](Cc1c[nH]cn1)C(=O)N[C@H](Cc1ccccc1)C(=O)N[C@@H](CCCNC(=N)N)C(=O)N[C@@H](Cc1c[nH]c2ccccc12)C(N)=O [MSH4, Ac-His-DPhe-Arg-Trp-NH2]	low micromolar	–
Trp-Met-Asp-Phe-NH2 [CCK4]	–	low nanomolar
